## Antibody variant affinities, Ab-14 heavy chain, assay B

All variants were tested on one target, the spike HR2 peptide PDVDLGDISGINAS (SARS-CoV-2).

The variants keep the light chain, the linker and the frameworks of Ab-14 (scFv order VH, three GGGGS repeats, VL).
VH: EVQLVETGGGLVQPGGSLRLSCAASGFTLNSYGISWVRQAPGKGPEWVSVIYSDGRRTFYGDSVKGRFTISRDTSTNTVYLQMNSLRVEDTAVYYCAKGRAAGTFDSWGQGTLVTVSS
VL: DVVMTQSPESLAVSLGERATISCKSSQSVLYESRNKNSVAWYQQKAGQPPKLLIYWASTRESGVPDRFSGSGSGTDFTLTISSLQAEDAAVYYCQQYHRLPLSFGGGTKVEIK

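The starting antibody came from a phage panning campaign against this peptide. Designed CDR sequences, proposed from the first random library and measured here. Several design methods are mixed in this list. The assay is AlphaSeq: two haploid yeast populations carry antibody and antigen on their surface. Mating (16 h, 30 °C) was followed by selection of diploids and sequencing of their barcodes. The ratio of observed to expected reads was calibrated, replicate by replicate, on BCL2-family standards whose Kd was known from biolayer interferometry. The assay was run in six technical replicates.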

The parent's heavy chain CDRs are GFTLNSYGIS, VIYSDGRRTFYGDSVK, GRAAGTFDS; each variant's own CDRs replace them letter for letter. Variants here have more than six changes. Values are log10 of the apparent Kd in nM; lower means stronger binding. Replicates are averaged; those with no signal do not enter the mean. An entry "nd" has no value in the source: the pair was not observed among the diploids in any replicate. This suggests poor binding but is not conclusive. The authors averaged sequences with at least three values out of six and counted those with two or fewer as poor binders. The range of this assay differs from that of the first round, and the authors advise against merging the two. Nonspecific signal, from three strains lacking the peptide, appeared in 1% of pairings of all heavy chain designs, centred on 2.08 (5% of these signals below 0.84); values are not corrected for it. Also given: how often the same scFv was detected with the empty control strains.

| CDR-H1 | CDR-H2 | CDR-H3 | log10 Kd (nM), mean | replicates with signal | control signals |
|---|---|---|---|---|---|
| GFDLNEYGIS | VIYADGRRTFYADSVK | GTNAGTFDI | -0.53 | 6 of 6 | 0 of 18 |
| GFDLNEYGIS | VIYADGKRMAYSNKVK | GLMAGTMID | nd | 0 of 6 | 0 of 18 |
| GFDLDEYGIS | VIYADGMRKFYADSVK | GNVAGTFDV | -0.29 | 6 of 6 | 0 of 18 |
| GFDLEEYGIS | VIYADGQRTAYADDVK | GNVAGTFDV | -0.12 | 6 of 6 | 0 of 18 |
| GFDLNEYGIS | VIYADGRRTAYSDSVK | GNQAGTFDM | 0.30 | 6 of 6 | 0 of 18 |
| GFTLNDYGIS | VIYSDWRRTFYGISVK | GRNNLTFIS | nd | 0 of 6 | 0 of 18 |
| GFDLNEYGIS | VIYADGVRKAYADSVK | GEVAGTFDL | -0.75 | 6 of 6 | 0 of 18 |
| GFDLNEYGIS | VIYADGVRTEYQNQVK | GNIDGSFTF | nd | 0 of 6 | 0 of 18 |
| GFDLESYGIS | VIYADGSRTAYADSVK | GNVAGTFDM | -0.58 | 6 of 6 | 0 of 18 |
| GFDLNEYGIS | VIYADGKRTAYADSVK | GENGGTFDV | 0.44 | 5 of 6 | 0 of 18 |
| GFDLDEYGIS | VIYADGMRTFYQDSVK | GQNAGTFDQ | 0.48 | 6 of 6 | 0 of 18 |
| GFDLNEYGIS | VIYADGQRTAYADDVK | GANAGTFDV | -0.39 | 6 of 6 | 1 of 18 |
| GFDLNEYGIS | VIYADGRRTFYTDSVK | GTVAGTFDV | 0.09 | 6 of 6 | 0 of 18 |
| GFDLNEYGIS | VIYADGMRTAYSDNVK | GETAGTFDQ | -0.25 | 6 of 6 | 0 of 18 |
| GFDLNEYGIS | VIYADGRRTAYSDSVK | GTNAGTFDI | -0.87 | 6 of 6 | 0 of 18 |
| GFTLDEYGIS | VIYADGRRTFYADSVK | GELAGTFDI | -0.79 | 6 of 6 | 0 of 18 |
| GFNLDEYGIS | VIYADGRRTFYIDSVK | GETAGTFDS | -0.22 | 6 of 6 | 0 of 18 |
| GFDLNEYGIS | VIYADGRRTQYIDSVK | GDAAGTFDV | 0.24 | 6 of 6 | 0 of 18 |
| GFDLDEYGIS | VIYADGMRKAYADSVK | GNNAGTFDI | -0.44 | 4 of 6 | 0 of 18 |
| GFDLEEYGIS | VIYADGMRQMYAQNVK | GYNSSDMTV | 2.24 | 1 of 6 | 0 of 18 |
| GQNLDEYGIS | VIYADGMRKWYADDVK | GISSAFVII | nd | 0 of 6 | 0 of 18 |
| GFDLNEYGIS | VIYADGVRQAYADSVK | GENAGTFDI | -0.01 | 6 of 6 | 0 of 18 |
| GFNLDEYGIS | VIYADGYRTMYADDVK | GMNSGFGGT | nd | 0 of 6 | 0 of 18 |
| GFDLNEYGIS | VIYADGMRTAYADSVK | GETAGTFVQ | -0.24 | 6 of 6 | 0 of 18 |
| GFDLNEYGIS | VIYADGQRTYYADSVK | GENAGTFDL | -0.62 | 6 of 6 | 0 of 18 |
| GFDLDEYGIS | VIYADGRRTFYADSVK | GTVAGTFDA | -0.43 | 6 of 6 | 1 of 18 |
| GKSLDEYGIS | VIYADGMRSAYTDDVK | GVWGEDVVT | 2.52 | 2 of 6 | 0 of 18 |
| GFDLNEYGIS | VIYADGVRTAYSDSVK | GEAGGTFDS | 1.04 | 6 of 6 | 0 of 18 |
| GFDLNEYGIS | VIYADGRRTAYANSVK | GENAGTFDV | 0.54 | 6 of 6 | 0 of 18 |
| GFSLDEYGIS | VIYADGVRQFYCDDVK | GGIAGTFNY | -0.28 | 4 of 6 | 0 of 18 |
| GFTLNQNGIV | VIYSDGRRTFYSDSVK | YRAAGFTDS | nd | 0 of 6 | 1 of 18 |
| GFALNEYGIS | VIYADGKRQVYANKVK | GNQTGTFDI | nd | 0 of 6 | 0 of 18 |
| GMDIDEYGIS | VIYADGSRVFYVQDVK | GTLDVVGDV | nd | 0 of 6 | 0 of 18 |
| GFPLEEYGIS | VIYADGKRTFYTDAVK | GTWGVFGLG | nd | 0 of 6 | 0 of 18 |
| GFSLDEYGIS | VIYADGRRTFYADSVK | GEVAGTFDV | -0.67 | 6 of 6 | 1 of 18 |
| GFDLTEYGIS | VIYADGRRTQYQDSVK | GLNGGIIVV | nd | 0 of 6 | 0 of 18 |
| GFSLDEYGIS | VIYADGLRTQYSNKVK | GLQGGFFDQ | 2.37 | 1 of 6 | 0 of 18 |
| GFDLEEYGIS | VIYADGMRVSYTNTVK | GQNSMISTT | nd | 0 of 6 | 0 of 18 |
| GFKINEYGIS | VIYADGQRVAYTNSFK | GTQAGQFFN | nd | 0 of 6 | 0 of 18 |
| GFDLNEYGIS | VIYADGVRTAYTDSVK | GNAAGTFDV | -0.93 | 6 of 6 | 0 of 18 |
| GFDLDEYGIS | VIYADGRRTFYQDSVK | GNVAGTFDV | -0.53 | 6 of 6 | 0 of 18 |
| GKGLDEYGIS | VIYADGVRKAYQQSVK | GQVGFFIRV | nd | 0 of 6 | 0 of 18 |
| GFDLNEYGIS | VIYADGLRTSYADSVK | GQTAGTFDQ | 0.43 | 6 of 6 | 0 of 18 |
| GFDLDEYGIS | VIYADGKRTAYADSVK | GNTAGTFDM | -0.44 | 3 of 6 | 0 of 18 |
| GFNLNEYGIS | VIYADGRRTFYTDDVK | GEIAGTFDL | -0.68 | 6 of 6 | 0 of 18 |
| GFDLNEYGIS | VIYADGRRTFYTDSVK | GQLAGTFDF | -0.47 | 6 of 6 | 0 of 18 |
| GFDLNEYGIS | VIYADGQRTAYSDSVK | GNQAGTFDM | -0.29 | 6 of 6 | 0 of 18 |
| GFDLNEYGIS | VIYADGQRTFYADNVK | GNVAGTFDQ | -0.43 | 6 of 6 | 0 of 18 |
| GFDLNEYGIS | VIYADGRRTFYADSVK | GSNGGTFDV | -0.17 | 6 of 6 | 0 of 18 |
| GFDLQDYGIS | VIYADGVRTAYVNNVK | GKWGATLSV | nd | 0 of 6 | 0 of 18 |
| GFDLEDYGIS | VIYADGMRTAYADSVK | GENAGTFDL | nd | 0 of 6 | 0 of 18 |
| GFDLDEYGIS | VIYADGMRTAYTDSVK | GTNAGTFDV | -0.98 | 6 of 6 | 0 of 18 |
| GFDLNEYGIS | VIYADGKRTFYSDSVK | GNIAGTFDV | -1.00 | 6 of 6 | 0 of 18 |
| GFDINEMGIS | VIYADGQRLAYAQEVK | GKNTGTFTF | nd | 0 of 6 | 0 of 18 |
| GNNLEEYGIS | VIYADGRRTSYASDVK | GDIRGIFDS | nd | 0 of 6 | 0 of 18 |
| GFDLDEYGIS | VIYADGQRTAYADDVK | GENAGTFDL | 0.76 | 6 of 6 | 0 of 18 |
| GFDLDEYGIS | VIYADGQRTAYADDVK | GETAGTFDV | -0.64 | 6 of 6 | 0 of 18 |

Picked from the list: the 4 lowest averages where every replicate gave a value.

{"CDR-H1": "GFDLNEYGIS", "CDR-H2": "VIYADGKRTFYSDSVK", "CDR-H3": "GNIAGTFDV", "log10 Kd (nM), mean": "-1.00", "replicates with signal": "6 of 6", "control signals": "0 of 18"}
{"CDR-H1": "GFDLDEYGIS", "CDR-H2": "VIYADGMRTAYTDSVK", "CDR-H3": "GTNAGTFDV", "log10 Kd (nM), mean": "-0.98", "replicates with signal": "6 of 6", "control signals": "0 of 18"}
{"CDR-H1": "GFDLNEYGIS", "CDR-H2": "VIYADGVRTAYTDSVK", "CDR-H3": "GNAAGTFDV", "log10 Kd (nM), mean": "-0.93", "replicates with signal": "6 of 6", "control signals": "0 of 18"}
{"CDR-H1": "GFDLNEYGIS", "CDR-H2": "VIYADGRRTAYSDSVK", "CDR-H3": "GTNAGTFDI", "log10 Kd (nM), mean": "-0.87", "replicates with signal": "6 of 6", "control signals": "0 of 18"}

From the AlphaSeq antibody data of Li et al. 2023 (doi:10.1038/s41467-023-39022-2), copy in the FLAb collection.